The list shows a part of the results, in another mix than the full data. Activity calls are given as the source filed them.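 The calls were made as follows: active = mean inhibition above about 50% when retested at one dose (limit read from the data); inactive = the rest.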

The assay can be described thus: Ultra-Glo luciferase signal interference – biochemical, single concentration, SENP8 reaction pre-completed, artefact control for SENP inhibitor project, confirmation (AID 488919).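 Also: plate controls were DMSO wells with completed reaction for no effect and substrate without enzyme for full effect.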 To be noted: Pre-incubated SENP8/Z-RLRGG-aminoluciferin, luciferase luminescence interference; at 12.5 µM; hits give high values.
With `CP(=O)(Nc1ccccn1)Oc1ccc(Cl)cc1` (configuration not stated), the inhibition (commonly the change of the read-out against control, counted positive when it falls) is inactive: -6.8%.

Take `CC1=C2N=C(C=C3N=C(C(C)=C4[N-][C@@](C)([C@@H]5N=C1[C@](C)(CCC(=O)NC[C@@H](C)OP(=O)([O-])O[C@H]1[C@@H](O)[C@@H](n6cnc7cc(C)c(C)cc76)O[C@@H]1CO)[C@H]5CC(N)=O)[C@@](C)(CC(N)=O)[C@@H]4CCC(N)=O)[C@@](C)(CC(N)=O)[C@@H]3CCC(N)=O)C(C)(C)[C@@H]2CCC(N)=O.[C-]#N.[Co+3]`: the inhibition was inactive: -3.5%.

The values are drawn from PubChem BioAssay AID488919 (Sanford-Burnham Center for Chemical Genomics, 2010).
